In patent US9789072B2, “Therapeutic agents for use in the propylaxis and/or treatment of hyperkinetic movement disorders” (SOM INNOVATION BIOTECH, S.L., priority 2013, dated 2017):
Where two headings read alike, the source gives them in different places.

The chains behind the UniProt entries cited, without tags or fusion partners.
UniProt Q01827, whole entry: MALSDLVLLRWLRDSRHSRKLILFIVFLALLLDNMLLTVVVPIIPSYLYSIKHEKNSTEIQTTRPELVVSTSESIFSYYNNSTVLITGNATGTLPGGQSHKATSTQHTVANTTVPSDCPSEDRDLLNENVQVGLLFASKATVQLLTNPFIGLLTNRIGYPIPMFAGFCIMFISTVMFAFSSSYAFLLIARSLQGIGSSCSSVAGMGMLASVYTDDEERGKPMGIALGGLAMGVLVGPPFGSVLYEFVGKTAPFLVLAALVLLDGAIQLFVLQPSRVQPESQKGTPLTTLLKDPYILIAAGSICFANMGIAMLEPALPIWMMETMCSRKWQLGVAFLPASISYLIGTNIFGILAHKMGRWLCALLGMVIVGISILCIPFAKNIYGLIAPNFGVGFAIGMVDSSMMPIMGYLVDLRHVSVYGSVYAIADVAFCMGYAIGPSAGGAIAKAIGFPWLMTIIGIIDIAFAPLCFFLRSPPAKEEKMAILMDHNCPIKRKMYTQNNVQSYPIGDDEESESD

Biological target: T1, VMAT2 (Rattus norvegicus, UniProt Q01827)
T1 construct: the VMAT2 present in isolated cerebral cortical vesicles; from tissue; host or cells: rat cerebral cortex, synaptic vesicles purified by differential centrifugation
Experiment: VMAT2 functional assay ([3H]-dopamine uptake into isolated vesicles)
Type: biochemical
Conditions: rat cortical vesicles, [3H]-dopamine 30 nM, 30 min pre-incubation, 15 min uptake, room temperature
Experimental: VMAT2 Functional Assay determines the interaction between the compounds of the present invention and the VMAT2 present in isolated cerebral cortical vesicles.
Transporter Source: Rat cortical vesicles
Buffers: 100 mM potassium tartrate, 1.7 mM ascorbic acid, 0.05 mM EGTA, 0.1 mM EDTA, 2 mM Magnesium-ATP and 25 mM HEPES.
RadioLigand: • Monoamine: [3H]-Dopamine • Final ligand concentration: 30 nM
Vmax (transport rate): 1800 fmol/mg tissue/min
Positive reference-control: • Reserpine • Concentration: 10 μM
(1) Rat cortical vesicles were purified using differential centrifugation, and the vesicles obtained were diluted in the assay buffer and pre-incubated with the positive-reference-control, the comparative sample or a compound of the invention for 30 minutes at room temperature. […]
(3) After that time, the reaction was stopped by vacuum filtration, and the amount of radioactivity of the radiolabeled [3H]-dopamine trapped onto the filters was determined.
(4) The radioactivity of the [3H]-dopamine trapped was determined using liquid scintillation spectrophotometry (Beckman and Perkin Elmer). The amount of radioactivity obtained with the comparative sample or a compound of the invention was compared with the amount of radioactivity obtained with the positive-reference control (reserpine). […]

An IC50 (Experiment 1, read-out: IC50 (nM) Experiment 1) of 10.5 nM and an IC50 (Experiment 2, read-out: IC50 (nM) Experiment 2) of 36.7 nM were found for COc1cc2c(cc1OC)C1CC(=O)C(CC(C)C)CN1CC2 (stereo not drawn) [tetrabenazine, (SS,RR)-3-isobutyl-9,10-dimethoxy-1,3,4,6,7,11b-hexahydro-pyrido[2,1-a]isoquinolin-2-one] in this work.
